Experimental data published in patent publication US11357857B2, “Excipient compounds for protein processing” (COMERA LIFE SCIENCES, INC., priority 2014, dated 2022).

Test system: bovine gamma globulin (BGG)
Experiment: Viscosity of 280 mg/mL BGG formulations in 50 mM histidine HCl pH 6 with excipient, cone and plate viscometer (Examples 1, 2, 4-6)
Format: physicochemical

Sodium hydroxybenzoate
Viscosity: 50 cP | Viscosity Reduction: 37%
